{"source": "paper PMC6290340", "about": "“Discovery of Antiamebic Compounds That Inhibit Cysteine Synthase From the Enteric Parasitic Protist Entamoeba histolytica by Screening of Microbial Secondary Metabolites” (Frontiers in Cellular and Infection Microbiology, 2018)", "system": "E. histolytica trophozoites", "assay": "In vitro antiamebic activity (WST-1), L-cysteine-deprived or L-cysteine-supplemented BI-S-33 medium", "format": "cell-based, Entamoeba histolytica", "conditions": "ED50 Cys(+)/ED50 Cys(–), cysteine dependence index", "experimental": "Trophozoites were harvested in a logarithmic growth phase 3 or 4 days after inoculation of 1/30–1/12 volume of the seed culture. After the cultures were chilled on ice for 5 min, trophozoites were collected by centrifugation at 500 × g for 10 min at 4°C. The trophozoites were resuspended in BI-S-33 medium containing 1% (v/v) penicillin/streptomycin (Life Technologies, Grand Islands, NY, U.S.A.), with a final concentration of 5 × 10^4 cells/ml. […] The plates were incubated under anaerobic conditions with Anaeropak for 48 hrs. After incubation, the medium was removed and 90 μl of pre-warmed Opti-MEM I (Life Technologies) and 10 μl of WST-1 solution (Dojindo, Kumamoto, Japan) were added to each well. Optical absorbance at 450 nm was measured on a photospectrometer (SH-9000Lab, Corona Electric, Ibaraki, Japan). Metronidazole (Sigma-Aldrich, MO, USA) was used as positive control. Antiamebic assays were done in triplicate. […] The cysteine dependence of the antiamebic activities was calculated as ED 50Cys(+) /ED 50Cys(-) and expressed as “cysteine dependence index.”\nApproximately 2 μl of the compound solution (1 mg/ml, in DMSO) of the Kitasato Natural Products Library or 10 μl of EtOH extracts of microbial culture broth extracts was added to each well of E. histolytica trophozoite-seeded 96-well microtiter plates (final concentrations, 10 μg/ml). […]"}
{"smiles": "C/C=C/C/C=C/CCC(=O)[C@H]1O[C@H]1C(N)=O", "note": "[Cerulenin, reference compound]", "values": [{"measurement": "Anti-amebic activity Selectivity Cys(+)/Cys(–)", "result": 7}]}
